Molecular target: T1, His-Arl8b (recombinant) (human, UniProt Q9NVJ2 1-186)
T1 construct: also called purified His-Arl8b; source: E. coli BL21, purified (His60 Ni Superflow resin)
T1 sequence (looked up): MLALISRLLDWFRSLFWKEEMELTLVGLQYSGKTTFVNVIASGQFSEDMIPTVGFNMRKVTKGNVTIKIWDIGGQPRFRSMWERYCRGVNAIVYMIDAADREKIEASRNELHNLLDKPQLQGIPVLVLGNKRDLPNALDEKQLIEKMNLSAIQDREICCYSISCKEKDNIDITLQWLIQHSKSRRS
Test: pull-down; 5 µg GST or GST-tagged RUFY3 proteins on glutathione beads, blocked with 5% BSA, incubated with 5 µg purified His-Arl8b at 4 °C for 1 h in TAP lysis buffer; blot with anti-His
Conditions: both partners purified

binding result: binds
B1: GST-tagged-RUFY3 (441–561) (domain or fragment, human, UniProt Q7L099-3 441-561, looked up)
chain: KQLEQRLRQAERSRQSAELDNRLFKQDFGDKINSLQLEVEELTRQRNQLELELKQEKERRLQNDRSIPGRGSQKSESKMDGKHKMQEENVKLKKPLEESHRLQPHPMDEQDQLLLSEKPQL
notes: source: E. coli BL21, purified (glutathione resin)

From PMC8938454, “RUFY3 links Arl8b and JIP4-Dynein complex to regulate lysosome size and positioning” (Nature Communications, 2022)
